In US20070282007A1, “TREATMENT OF PAIN DISORDERS WITH trans 4-(3,4-DICHLOROPHENYL)-1,2,3,4-TETRAHYDRO-1-NAPHTHALENAMINE AND ITS FORMAMIDE” (SEPRACOR INC., priority 2006, published 2007) one finds IC50 and Ki data, which are given here for four molecules.

Protein sequences, listed by entry. Tags and fused reporters are not part of them. Lines headed by an entry give the natural chain unless they say otherwise; changes in a name come on top. Residues count along the entry.
UniProt P31652, whole entry: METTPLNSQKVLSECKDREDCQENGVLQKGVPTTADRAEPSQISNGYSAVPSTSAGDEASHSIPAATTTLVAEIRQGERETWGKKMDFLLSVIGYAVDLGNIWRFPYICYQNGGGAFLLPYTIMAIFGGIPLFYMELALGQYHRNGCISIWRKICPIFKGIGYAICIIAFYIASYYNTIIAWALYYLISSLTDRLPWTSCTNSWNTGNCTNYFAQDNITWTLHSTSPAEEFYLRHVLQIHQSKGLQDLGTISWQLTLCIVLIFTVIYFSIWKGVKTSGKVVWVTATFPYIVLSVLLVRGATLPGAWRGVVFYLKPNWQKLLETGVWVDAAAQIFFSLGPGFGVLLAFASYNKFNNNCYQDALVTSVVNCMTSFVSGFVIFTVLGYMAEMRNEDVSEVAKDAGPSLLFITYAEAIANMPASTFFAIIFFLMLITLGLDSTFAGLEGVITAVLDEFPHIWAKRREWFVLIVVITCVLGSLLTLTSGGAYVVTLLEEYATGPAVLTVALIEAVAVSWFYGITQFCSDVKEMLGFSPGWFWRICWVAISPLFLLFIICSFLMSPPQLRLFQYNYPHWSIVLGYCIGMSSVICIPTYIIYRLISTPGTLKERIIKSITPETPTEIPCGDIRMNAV
UniProt P31645, whole entry: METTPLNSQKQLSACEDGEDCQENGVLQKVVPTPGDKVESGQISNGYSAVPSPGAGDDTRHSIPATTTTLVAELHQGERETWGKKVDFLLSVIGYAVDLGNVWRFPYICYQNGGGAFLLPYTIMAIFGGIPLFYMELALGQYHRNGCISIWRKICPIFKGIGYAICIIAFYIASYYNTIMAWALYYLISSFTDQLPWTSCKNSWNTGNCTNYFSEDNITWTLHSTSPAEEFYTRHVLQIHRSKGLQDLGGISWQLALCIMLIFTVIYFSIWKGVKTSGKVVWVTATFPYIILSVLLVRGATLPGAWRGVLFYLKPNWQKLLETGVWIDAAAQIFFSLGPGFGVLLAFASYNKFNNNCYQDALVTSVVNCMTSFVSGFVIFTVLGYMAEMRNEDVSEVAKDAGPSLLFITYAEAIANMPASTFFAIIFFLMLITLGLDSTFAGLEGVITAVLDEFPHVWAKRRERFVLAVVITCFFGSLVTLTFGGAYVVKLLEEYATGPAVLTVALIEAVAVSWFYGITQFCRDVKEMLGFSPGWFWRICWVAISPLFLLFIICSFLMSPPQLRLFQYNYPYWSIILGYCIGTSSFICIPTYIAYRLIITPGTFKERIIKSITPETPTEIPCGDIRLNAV
UniProt P20309, whole entry: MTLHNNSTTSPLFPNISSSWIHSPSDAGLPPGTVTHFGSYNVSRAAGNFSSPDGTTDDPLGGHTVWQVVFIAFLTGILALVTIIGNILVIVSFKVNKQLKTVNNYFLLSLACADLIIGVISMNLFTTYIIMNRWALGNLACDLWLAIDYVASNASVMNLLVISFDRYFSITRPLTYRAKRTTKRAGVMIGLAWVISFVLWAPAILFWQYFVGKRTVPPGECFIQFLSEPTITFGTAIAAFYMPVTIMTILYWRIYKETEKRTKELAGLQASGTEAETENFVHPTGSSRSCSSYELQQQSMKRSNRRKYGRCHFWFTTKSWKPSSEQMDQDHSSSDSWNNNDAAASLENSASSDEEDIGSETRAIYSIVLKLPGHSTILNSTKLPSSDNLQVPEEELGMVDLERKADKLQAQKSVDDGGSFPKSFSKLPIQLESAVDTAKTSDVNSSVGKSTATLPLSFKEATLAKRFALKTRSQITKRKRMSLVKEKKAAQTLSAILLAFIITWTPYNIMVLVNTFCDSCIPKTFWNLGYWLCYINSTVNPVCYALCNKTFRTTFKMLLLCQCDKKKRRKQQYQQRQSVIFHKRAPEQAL
UniProt P11229: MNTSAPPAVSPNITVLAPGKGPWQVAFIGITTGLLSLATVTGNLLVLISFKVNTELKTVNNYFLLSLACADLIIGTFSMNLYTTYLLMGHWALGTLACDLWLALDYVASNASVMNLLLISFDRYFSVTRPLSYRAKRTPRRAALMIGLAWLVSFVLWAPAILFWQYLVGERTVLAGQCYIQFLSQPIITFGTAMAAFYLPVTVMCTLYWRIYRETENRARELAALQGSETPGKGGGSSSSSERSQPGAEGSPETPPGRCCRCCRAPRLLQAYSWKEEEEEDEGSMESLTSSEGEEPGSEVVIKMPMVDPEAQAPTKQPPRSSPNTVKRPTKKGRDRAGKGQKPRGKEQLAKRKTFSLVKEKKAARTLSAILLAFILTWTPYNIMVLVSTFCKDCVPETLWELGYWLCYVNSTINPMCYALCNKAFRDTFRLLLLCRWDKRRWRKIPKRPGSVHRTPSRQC
UniProt Q63380, 1-617: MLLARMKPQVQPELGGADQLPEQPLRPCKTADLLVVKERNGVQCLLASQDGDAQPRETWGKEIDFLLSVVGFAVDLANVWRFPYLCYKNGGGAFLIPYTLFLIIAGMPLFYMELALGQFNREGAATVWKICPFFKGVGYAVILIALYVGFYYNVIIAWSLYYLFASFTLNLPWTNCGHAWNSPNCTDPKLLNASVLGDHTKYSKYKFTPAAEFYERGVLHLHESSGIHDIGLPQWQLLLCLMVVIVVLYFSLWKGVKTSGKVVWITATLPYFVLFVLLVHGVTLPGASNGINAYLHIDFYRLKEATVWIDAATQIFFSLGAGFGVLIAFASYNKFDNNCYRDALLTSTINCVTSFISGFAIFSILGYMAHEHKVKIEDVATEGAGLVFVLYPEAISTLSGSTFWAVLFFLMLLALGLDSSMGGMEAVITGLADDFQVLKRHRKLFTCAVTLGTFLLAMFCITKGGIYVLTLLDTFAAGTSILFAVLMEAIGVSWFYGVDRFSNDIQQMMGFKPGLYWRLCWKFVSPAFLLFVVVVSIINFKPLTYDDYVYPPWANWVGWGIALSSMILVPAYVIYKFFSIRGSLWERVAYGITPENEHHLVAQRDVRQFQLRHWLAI
UniProt P23977, whole entry: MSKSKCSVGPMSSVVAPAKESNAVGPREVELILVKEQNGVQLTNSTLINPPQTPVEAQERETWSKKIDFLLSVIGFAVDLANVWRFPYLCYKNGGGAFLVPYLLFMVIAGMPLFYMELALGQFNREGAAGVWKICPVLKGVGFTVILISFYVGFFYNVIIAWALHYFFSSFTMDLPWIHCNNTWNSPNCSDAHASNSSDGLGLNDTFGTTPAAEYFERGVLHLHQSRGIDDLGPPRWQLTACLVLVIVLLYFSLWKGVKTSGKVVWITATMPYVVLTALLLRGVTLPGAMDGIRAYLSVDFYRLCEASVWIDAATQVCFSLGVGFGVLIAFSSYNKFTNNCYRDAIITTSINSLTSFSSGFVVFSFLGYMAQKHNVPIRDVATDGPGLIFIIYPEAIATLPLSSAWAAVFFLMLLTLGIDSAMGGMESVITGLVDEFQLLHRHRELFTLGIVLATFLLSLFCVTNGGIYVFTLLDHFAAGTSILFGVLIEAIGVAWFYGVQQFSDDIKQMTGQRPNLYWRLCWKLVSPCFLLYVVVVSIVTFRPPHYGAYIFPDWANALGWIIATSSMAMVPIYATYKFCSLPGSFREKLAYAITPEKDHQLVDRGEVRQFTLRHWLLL

The target of one assay is Serotonin (5-HT) uptake (Rattus norvegicus, UniProt P31652). Nature of the assay: biochemical.
The target of the next assay is T1, 5-HT transporter (Homo sapiens, UniProt P31645).
T1 construct: expressed in transfected cells
Nature of the assay: Radioligand binding assay, 5-HT transporter ([3H]paroxetine displacement). The note with it: human recombinant; [3H]paroxetine 0.1 nM; read-out: Ki, Serotonin (5-HT) transporter.

The target of the next assay is muscarinic (M3) receptor (Homo sapiens, UniProt P20309). In words: biochemical.
A further assay deals with M1 (Homo sapiens, UniProt P11229). In words: In vitro radioligand binding assay, M1.
For assay [1], the target named is recombinant human Serotonin (5-HT) transporter (Homo sapiens, UniProt P31645). Nature of the assay: cell-based.
Assay [2] concerns the target T2, Norepinephrine (NE) uptake (Rattus norvegicus, UniProt Q63380).
T2 construct: from tissue; host or cells: synaptosomes from rat hypothalamus
In words: Functional uptake of radiolabeled NE into synaptosomes from rat hypothalamus. It counts as biochemical.

Another assay has as its target Dopamine (DA) uptake (Rattus norvegicus, UniProt P23977). In words: biochemical.

Each structure is given as a SMILES string.

By IC50 is commonly meant the midpoint of a concentration-inhibition curve. The molecule `N[C@@H]1CC[C@@H](c2ccc(Cl)c(Cl)c2)c2ccccc21` (racemic) [1:1 mixture of Compounds P & Q, trans-4-(3,4-dichlorophenyl)-1,2,3,4-tetrahydro-1-napthalenamine] displayed a 50% inhibitory concentration (IC50) against Serotonin (5-HT) uptake of 4.1 nM.
As a reminder, the Ki is a dissociation constant, usually derived from enzyme kinetics or from competition with a known ligand. With `N[C@@H]1CC[C@@H](c2ccc(Cl)c(Cl)c2)c2ccccc21` [Compound P, (1R,4S)-trans 4-(3,4-dichlorophenyl)-1,2,3,4-tetrahydro-1-napthalenamine], the Ki at 5-HT transporter is 23 nM; at muscarinic (M3) receptor, 170 nM; at M1, 1000 nM. Moreover, the values for the IC50 (at Serotonin (5-HT) uptake; in assay [1]) were 7.7 nM and 18.4 nM, respectively.
With `N[C@H]1CC[C@H](c2ccc(Cl)c(Cl)c2)c2ccccc21` [Compound Q, (1S,4R)-trans 4-(3,4-dichlorophenyl)-1,2,3,4-tetrahydro-1-napthalenamine], the results for the 50% inhibitory concentration (IC50) (on Serotonin (5-HT) uptake; in assay [1]) were 88 nM and 47.8 nM, respectively.
With `COc1ccc(C(CN(C)C)C2(O)CCCCC2)cc1` (stereo not shown) [Venlafaxine], the 50% inhibitory concentration (IC50) in assay [2] was 360 nM; at Dopamine (DA) uptake, 5000 nM.
